Sequences of proteins named here, by UniProt entry; tags and fusion partners are left off.
UniProt Q03405, whole entry: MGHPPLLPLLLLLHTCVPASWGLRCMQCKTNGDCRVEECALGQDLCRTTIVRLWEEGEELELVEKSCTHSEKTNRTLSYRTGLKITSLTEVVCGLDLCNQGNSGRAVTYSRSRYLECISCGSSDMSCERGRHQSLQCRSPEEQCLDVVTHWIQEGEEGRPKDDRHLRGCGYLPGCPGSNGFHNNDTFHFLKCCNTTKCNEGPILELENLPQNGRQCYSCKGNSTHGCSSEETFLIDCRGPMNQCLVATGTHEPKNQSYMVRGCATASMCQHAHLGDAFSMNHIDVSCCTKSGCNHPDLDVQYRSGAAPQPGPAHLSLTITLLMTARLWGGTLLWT

According to ChEMBL document CHEMBL2203137, “Design, synthesis, biochemical studies, cellular characterization, and structure-based computational studies of small molecules targeting the urokinase receptor” (Bioorg Med Chem, 2012):

Molecular target: Urokinase plasminogen activator surface receptor (Homo sapiens, UniProt Q03405)
Experiment: Binding affinity to human recombinant soluble urokinase receptor (1 to 277) expressed in Drosophila S2 cells after 15 mins by fluorescence polarization assay
Assay type: single protein

Kb [µM]	Activity	SMILES
0.4	–	COC(=O)c1ccc(-c2cc(N3CCCC(C)C3)c3noc4c3c2C(=O)c2ccccc2-4)cc1 (configuration not stated)
–	inactive	Cc1cccc(-c2cc(NCC(C)C)c3noc4c3c2C(=O)c2ccccc2-4)c1

Active and inactive are the calls of the source. No cut-off for these calls is given here.
